Data as given in the NIST ThermoML archive (doi:10.1021/acs.jced.6b00332).

Assay: mn = molality of the nth substance listed, in mol/kg
Conditions: 100 kPa, Liquid, m1 = 0.01; for speed of sound: Frequency=3 MHz, Sing-around technique in a fixed-path interferometer; for mass density: Vibrating tube method

CCC[N+](CCC)(CCC)CCC.[I-] [tetrapropylammonium iodide] + O
Conditions | mass density [kg/m3] | speed of sound [m/s]
293.15 K | 998.62 | 1484.5
298.15 K | 997.49 | 1498.5
303.15 K | 996 | 1510.9
308.15 K | 994.41 | 1521.4
313.15 K | 992.61 | 1530.4
318.15 K | 990.53 | 1538
